The assay concerns the target T1, PTP1B (Homo sapiens, UniProt P18031).
T1 construct: The 37 kDa form of PTP1B; from tissue; host or cells: placenta
T1 sequence (P18031 1-321 limits assumed): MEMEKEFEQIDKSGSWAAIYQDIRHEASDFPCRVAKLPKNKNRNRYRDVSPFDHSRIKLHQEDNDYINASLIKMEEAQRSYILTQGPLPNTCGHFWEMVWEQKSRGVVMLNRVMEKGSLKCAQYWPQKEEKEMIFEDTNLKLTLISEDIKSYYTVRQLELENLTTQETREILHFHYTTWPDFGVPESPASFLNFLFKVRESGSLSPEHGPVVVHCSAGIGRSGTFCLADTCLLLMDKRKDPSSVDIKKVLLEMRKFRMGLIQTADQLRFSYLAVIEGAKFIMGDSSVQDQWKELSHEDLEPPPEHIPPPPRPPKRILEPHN
Nature of the assay: Phosphatase assay with ENDY(P)INASL as substrate. It is filed as biochemical. As for the experimental part: The tyrosine phosphatases TC.PTP, TCΔC11.PTP, and RPTPα were purified from infected Sf9 cells as described recently (Zander et al., Biochemistry 30: 6964-6970, 1991; Daum et al., J. Biol. Chem. 266: 12211-12215, 1991). The 37 kDa form of PTP1B and CD45 were purified from placenta and spleen, respectively (according to Tonks et al., J. Biol. Chem. 263: 6722-6730, 1988; Tonks et al., Biochemistry 27: 8695-8701, 1988).
Phosphatase assays with ENDY(P)INASL were performed in buffer M6. Aliquots of 30 μl or 60 μl containing the phosphopeptide, the phosphatase (-beads) and effectors were incubated for 10 minutes at 30° C. The reaction was stopped by adding 200 μl of a suspension of 10% activated, acid-washed Norit A charcoal (v/v) in 0.9N HCl, 0.1M pyrophosphate and 2 mM NaH2 PO4 (according to Streuli et al., Proc. Natl. Acad. Sci. USA 86: 8698-8702, 1989). The mixture was cleared by 10-minute centrifugation and the radioactivity of 150 μl of the supernate was determined. Assays with MBP and RCML were performed as described in Tonks et al., J. Biol. Chem. 263: 6722-6730, 1988. Protein concentration was determined with BSA as standard (Bradford, Anal. Biochem. 72: 248-254, 1976).

The structures appear in SMILES notation.

As for `[O]=[V]([O-])([O-])[O-]` [vanadate], the “Phosphatase activity in percent of the value obtained in the absence of effectors” value (“Phosphatase activity in percent” for short) (effector 1.0 μM) came to 56%, the “Phosphatase activity in percent” value (effector 10 μM) stood at 5% and the “Phosphatase activity in percent” value (effector 100 μM) was 1%.

For the origin of these results see US5739278A, “Compositions for protein tyrosine phosphatases” (University of Washington, priority 1995, dated 1998).
